In patent US9598420B2, “Benzodiazepine bromodomain inhibitor” (GlaxoSmithKline LLC, priority 2009, dated 2017):

Experiments:
[1] = tested on: Human cell lines (n=33 comprising 15 heme cell lines, 14 breast cell lines and 4 other cell lines); assay: cells; conditions: 72 h
[2] = tested on: LPS induced IL-6 secretion from whole blood; assay: Measurement of LPS Induced IL-6 Secretion from Whole Blood; type: cell-based; conditions: LPS 200 ng/ml, 24 hours, immunoassay, read-out: pIC50 (IL-6 levels) (converted)
Description: (§1) Activation of monocytic cells by agonists of toll-like receptors such as bacterial lipopolysaccharide (LPS) results in production of key inflammatory mediators including IL-6. Such pathways are widely considered to be central to the pathophysiology of a range of auto-immune and inflammatory disorders.
(§2) After further incubation for 24 hours at 37 degrees, 140 ul of PBS are added to each well. The plates are sealed, shaken for 10 minutes and then centrifuged (2500 rpm×10 min). 100 ul of the supernatant are removed and IL-6 levels assayed by immunoassay (typically by MesoScale Discovery technology) either immediately or following storage at −20 degrees.

[3] = tested on: lethal dose of LPS (endotoxemia); conditions: 15 mg/kg LPS intraperitoneal; compound 10 mg/kg intravenously ninety minutes later; summed across multiple repeat experiments
[4] = tested on: TNFα levels in LPS stimulated whole blood; assay: LPS Stimulated Whole Blood Measuring TNFα Levels Assay; type: cell-based; conditions: 24 h, LPS 200 ng/ml, immunoassay, read-out: pIC50 (TNFα levels) (converted)
Description: as §1, with “TNFα.” for “IL-6.”
as §2, with “TNFα” for “IL-6”

Compound	pIC50 ([1]; read-out: gIC50, across all cell lines)	pIC50 ([1]; read-out: gIC50, breast cell lines)	pIC50 ([1]; read-out: gIC50, heme cell lines)	IC50 [2]	Animals surviving at 4 days, percent [3]	Numbers of animals surviving at 4 days [3]	IC50 [4]
CCNC(=O)C[C@@H]1N=C(c2ccc(Cl)cc2)c2cc(OC)ccc2-n2c(C)nnc21 [Example 1, 2-[(4S)-6-(4-Chlorophenyl)-1-methyl-8-(methyloxy)-4H-[1,2,4]triazolo[4,3-a][1,4]benzodiazepin-4-yl]-N-ethylacetamide]	4.53 to 6.79	4.53 to 6.39	5.61 to 6.79	≤ 10 µM	(52%)	24/56	
CCNC(=O)C[C@H]1N=C(c2ccc(Cl)cc2)c2cc(OC)ccc2-n2c(C)nnc21 [Example 81]				> 10 µM			≤ 10 µM

pIC50: −log10 of the molar value. Where two headings read alike, the source gives them in different places.
